Target: T1, MMP 9 (Homo sapiens, UniProt P14780)
T1 construct: The stock of human neutrophil gelatinase B is diluted with assay buffer; from tissue; host or cells: human neutrophils
Assay: In Vitro Gelatinase Assay (human neutrophil gelatinase B, thiopeptide substrate/DTNB)
Assay type: biochemical

Protein sequences, listed by entry. Tags and fused reporters are not part of them. Residues count along the entry.
UniProt P14780, 94-707: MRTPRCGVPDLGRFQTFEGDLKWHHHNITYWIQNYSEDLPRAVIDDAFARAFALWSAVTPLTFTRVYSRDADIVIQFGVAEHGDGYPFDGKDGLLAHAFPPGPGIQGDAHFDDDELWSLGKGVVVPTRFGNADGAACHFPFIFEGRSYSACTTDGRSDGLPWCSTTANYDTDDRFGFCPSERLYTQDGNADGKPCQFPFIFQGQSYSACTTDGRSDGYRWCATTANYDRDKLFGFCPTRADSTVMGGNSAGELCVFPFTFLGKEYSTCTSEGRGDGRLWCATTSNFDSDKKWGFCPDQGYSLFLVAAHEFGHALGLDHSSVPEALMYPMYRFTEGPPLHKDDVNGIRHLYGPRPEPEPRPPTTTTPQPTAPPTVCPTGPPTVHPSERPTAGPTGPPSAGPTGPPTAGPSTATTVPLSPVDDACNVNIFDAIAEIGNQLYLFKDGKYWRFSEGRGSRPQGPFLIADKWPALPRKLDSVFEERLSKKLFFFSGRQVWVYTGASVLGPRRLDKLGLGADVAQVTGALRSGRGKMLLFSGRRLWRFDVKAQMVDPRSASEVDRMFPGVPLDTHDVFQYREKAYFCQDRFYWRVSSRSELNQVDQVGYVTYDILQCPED

IC50: 10.8 nM
Compound: COc1ccc(CS(=O)(=O)C(C)(Cc2ccccc2)C(=O)NO)cc1 (stereo not shown) [Example 41, N-Hydroxy-2-(4-methoxy-phenylmethanesulfonyl)-2-methyl-3-phenyl propionic acid hydroxamide]
